From US20230374127A1 (LG CHEM, published 2023)
Where a chain is given by its changes, count along the chain named.

Chains of the proteins cited; added tags and fusions are not shown. Residues count along the entry.
UniProt Q8NHL6, 24-458 limits assumed: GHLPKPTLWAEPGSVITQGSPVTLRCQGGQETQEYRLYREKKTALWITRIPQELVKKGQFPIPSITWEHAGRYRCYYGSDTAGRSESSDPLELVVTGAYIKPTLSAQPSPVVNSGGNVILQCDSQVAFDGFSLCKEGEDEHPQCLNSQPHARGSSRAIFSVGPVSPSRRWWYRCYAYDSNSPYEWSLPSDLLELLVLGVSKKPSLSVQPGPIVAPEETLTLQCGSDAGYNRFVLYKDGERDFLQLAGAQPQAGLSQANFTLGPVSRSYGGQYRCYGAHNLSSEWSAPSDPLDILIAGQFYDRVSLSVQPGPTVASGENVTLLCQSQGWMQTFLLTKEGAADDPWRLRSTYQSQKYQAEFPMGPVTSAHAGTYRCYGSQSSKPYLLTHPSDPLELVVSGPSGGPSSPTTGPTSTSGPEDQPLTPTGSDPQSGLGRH

B1: anti-LILRB1 antibody No. 8 (antibody, V domains shown)
VH: QVQLVQSGAEVKKPGSSVKVSCKASGGTFSSYGIHWVRQAPGQGLEWMGWIIPISGTTNYAQKFQGRVTITADESTSTAYMELSSLRSEDTAVYYCARVGGVGLYVFDVWGQGTLVTVSS
VL: not shown
B2: anti-LILRB1 antibody No. 13 (antibody, human IgG4 S228P, kappa, F234A L235A, V domains shown)
VH: QVQLVQSGAEVKKPGSSVKVSCKASGGTFSGYYIHWVRQAPGQGLEWMGWISPSSGGTIYAQKFQGRVTITADESTSTAYMELSSLRSEDTAVYYCARDISVRVVQAFDYWGQGTLVTVSS
VL: DIQMTQSPSSLSASVGDRVTITCRASQSISNYLNWYQQKPGKAPKLLIYAASRLQSGVPSRFSGSGSGTDFTLTISSLQPEDFATYYCQQSYSFPFTFGQGTKVEIKR
B3: anti-LILRB1 antibody No. 14 (antibody, human IgG4 S228P, kappa, F234A L235A, V domains shown)
VH: QVQLVQSGAEVKKPGSSVKVSCKASGGTFSSYYMHWVRQAPGQGLEWMGWISPYLGITNYAQKFQGRVTITADESTSTAYMELSSLRSEDTAVYYCARAGYQQAQYWFDYWGQGTLVTVSS
VL: B2 VL with A51T, R53N, F96W
B4: anti-LILRB1 antibody No. 16 (antibody, human IgG4 S228P, kappa, F234A L235A, V domains shown)
VH: QVQLVQSGAEVKKPGSSVKVSCKASGGTFSSYYMTWVRQAPGQGLEWMGGISPILGVTNYAQKFQGRVTITADESTSTAYMELSSLRSEDTAVYYCARLLVGVSETYFDYWGQGTLVTVSS
VL: B2 VL with S28D, N31S, Y32W, R53S, F96W
B5: anti-LILRB1 antibody No. 18 (antibody, human IgG4 S228P, kappa, F234A L235A, V domains shown)
VH: QVQLVQSGAEVKKPGSSVKVSCKASGGTFSSYDINWVRQAPGQGLEWMGWIIPTSGSTNYAQKFQGRVTITADESTSTAYMELSSLRSEDTAVYYCARDSQSSYIGYFDVWGQGTLVTVSS
VL: B2 VL with N31R, Y32W, Y92E, F96W
B6: anti-LILRB1 antibody No. 22 (antibody, human IgG4 S228P, kappa, F234A L235A, V domains shown)
VH: QVQLVQSGAEVKKPGSSVKVSCKASGGTFSSYAMHWVRQAPGQGLEWMGGISSSGGTTYYADSVKGRVTITADESTSTAYMELSSLRSEDTAVYYCARALGVVGGTWFDYWGQGTLVTVSS
VL: B2 VL with S30G, N31S, A50D, R53T, F96W
B7: anti-LILRB1 antibody No. 11 (antibody, human IgG4 S228P, kappa, F234A L235A, V domains shown)
VH: B2 VH with G31S, I34V, S54Y, I59N, I100Y, S101Y, R103S, V104A, V105Y, Q106G
VL: B2 VL with A50D, R53T, F96W

Target: T1, human LILRB1 protein (LILRB1-His, RnD systems Cat. No. 8989-T2) (human, UniProt Q8NHL6 24-458, limits assumed)
T1 construct: Bought protein; also called LILRB1 antigen; the antigen, LILRB1; not shown: His tag
Test: SPR, Biacore T200; antibody captured by anti-human IgG (Fc), LILRB1-His injected 25-400 nM
Protocol: The binding affinities of the 19 antibodies, which were selected in Example 3, to the antigen, LILRB1, were measured using Biacore T200 (GE healthcare). An anti-human IgG (Fc) antibody (GE healthcare, Cat. No. BR-1008-39, final concentration of 25 μg/mL) was flowed at the flow rate of 5 μL/min for 360 seconds to be immobilized at 5000-7000 RU on Series S Sensor Chip CM5 (GE healthcare, Cat. No. BR-1005-30) using Amine Coupling Kit (GE healthcare, Cat. No. BR-1000-50).

Binder | Kd [nM] | koff [s⁻¹] | kon [M⁻¹ s⁻¹]
B1 | 75.2 | 0.00464 | 61700
B2 | 30.3 | – | –
B3 | 409 | 0.0663 | 162000
B4 | 83.3 | 0.00963 | 116000
B5 | 4.32 | 0.000622 | 144000
B6 | 499 | 0.0341 | 68300
B7 | 12.2 | 0.000106 | 8660
